Assay results as given in US20250154109A1, “SODIUM CHANNEL BLOCKING COMPOUNDS, DERIVATIVES THEREOF, AND METHODS OF THEIR USE” (LATIGO BIOTHERAPEUTICS, INC, priority 2022, published 2025).

The chains behind the UniProt entries cited, without tags or fusion partners.
UniProt Q9Y5Y9, whole entry: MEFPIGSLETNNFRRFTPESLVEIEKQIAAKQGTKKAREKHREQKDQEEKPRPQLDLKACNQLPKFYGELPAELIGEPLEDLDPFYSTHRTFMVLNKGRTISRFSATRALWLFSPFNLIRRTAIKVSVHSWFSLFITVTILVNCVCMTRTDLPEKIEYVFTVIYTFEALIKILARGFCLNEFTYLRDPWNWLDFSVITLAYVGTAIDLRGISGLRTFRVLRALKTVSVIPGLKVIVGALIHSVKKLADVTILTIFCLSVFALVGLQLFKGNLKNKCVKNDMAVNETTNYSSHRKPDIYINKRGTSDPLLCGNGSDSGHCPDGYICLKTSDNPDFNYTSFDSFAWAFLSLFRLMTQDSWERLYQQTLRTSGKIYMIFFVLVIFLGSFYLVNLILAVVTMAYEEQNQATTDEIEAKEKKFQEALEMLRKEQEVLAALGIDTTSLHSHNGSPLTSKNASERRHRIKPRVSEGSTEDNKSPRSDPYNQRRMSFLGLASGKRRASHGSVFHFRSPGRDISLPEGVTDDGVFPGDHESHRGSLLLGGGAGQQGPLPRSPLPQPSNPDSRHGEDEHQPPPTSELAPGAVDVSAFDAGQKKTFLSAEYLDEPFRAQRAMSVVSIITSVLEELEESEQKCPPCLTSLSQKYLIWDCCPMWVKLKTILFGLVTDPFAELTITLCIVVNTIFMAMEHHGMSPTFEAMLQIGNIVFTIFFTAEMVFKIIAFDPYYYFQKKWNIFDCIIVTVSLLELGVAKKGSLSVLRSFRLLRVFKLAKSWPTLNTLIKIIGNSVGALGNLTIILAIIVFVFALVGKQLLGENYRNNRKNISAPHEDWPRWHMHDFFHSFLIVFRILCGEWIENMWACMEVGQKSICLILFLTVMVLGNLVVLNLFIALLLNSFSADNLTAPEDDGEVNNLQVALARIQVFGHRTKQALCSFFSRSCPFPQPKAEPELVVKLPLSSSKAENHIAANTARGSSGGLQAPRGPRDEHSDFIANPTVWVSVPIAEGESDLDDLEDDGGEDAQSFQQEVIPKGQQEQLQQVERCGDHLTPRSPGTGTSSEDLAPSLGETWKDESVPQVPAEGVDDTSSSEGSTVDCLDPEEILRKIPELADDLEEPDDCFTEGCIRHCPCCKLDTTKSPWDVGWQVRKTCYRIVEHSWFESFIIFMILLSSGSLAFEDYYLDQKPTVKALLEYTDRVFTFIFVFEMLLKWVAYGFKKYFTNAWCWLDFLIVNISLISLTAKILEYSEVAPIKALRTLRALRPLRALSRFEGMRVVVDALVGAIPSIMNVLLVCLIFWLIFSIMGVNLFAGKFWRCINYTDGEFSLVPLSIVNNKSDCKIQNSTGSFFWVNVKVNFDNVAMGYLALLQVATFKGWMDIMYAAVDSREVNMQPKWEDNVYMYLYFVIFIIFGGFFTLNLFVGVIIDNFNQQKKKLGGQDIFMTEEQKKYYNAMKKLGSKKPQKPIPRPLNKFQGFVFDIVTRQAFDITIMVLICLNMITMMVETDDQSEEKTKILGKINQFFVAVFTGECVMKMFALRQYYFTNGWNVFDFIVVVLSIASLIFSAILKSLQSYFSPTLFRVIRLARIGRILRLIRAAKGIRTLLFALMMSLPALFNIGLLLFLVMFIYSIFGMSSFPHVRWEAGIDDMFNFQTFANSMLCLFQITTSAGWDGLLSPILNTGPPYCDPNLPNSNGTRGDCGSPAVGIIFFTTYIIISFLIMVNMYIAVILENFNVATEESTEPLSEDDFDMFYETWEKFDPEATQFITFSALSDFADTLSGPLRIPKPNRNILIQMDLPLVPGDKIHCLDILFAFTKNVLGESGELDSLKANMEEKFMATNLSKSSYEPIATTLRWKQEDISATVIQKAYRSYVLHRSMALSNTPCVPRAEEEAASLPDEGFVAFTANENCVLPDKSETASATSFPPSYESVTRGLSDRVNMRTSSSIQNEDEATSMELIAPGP

Target: human Nav1.8 (Homo sapiens, UniProt Q9Y5Y9)
Assay: SyncroPatch384PE assay (automated patch clamp)
Assay type: cell-based
Method: Compounds were tested on recombinant human Nav1.8/b3 stably transfected CHO cells using the SyncroPatch384PE system (Nanion Technologies), an automated patch clamp device. Cells were cultured at 37° C./5% CO2 in Ham's F-12 supplemented with 10% fetal bovine serum, 100 U/mL penicillin G sodium, […] streptomycin sulfate and selection antibiotics (0.01 mg/mL Blasticidin, 0.4 mg/mL Zeocin and 0.25 mg/mL Hygromycin). On the day of the recordings, cells in culture dishes were washed twice with Hank's Balanced Salt Solution (HBSS) and treated with Accutase for approximately 20 minutes. Immediately before use in the SynchroPatch384PE using an 8-hole NPC-384 chip, the cells were washed in HBSS to remove the Accutase and re-suspended in extracellular solution. All experiments were performed at ambient temperature. […]
Whole cell patch clamp recordings were conducted according to Nanion's standard procedure for SyncroPatch384PE®. […] Compounds were then applied by the SynchroPatch384 PE system into each well and the current was recorded for five minutes in extracellular solution, followed by application of tetracaine to achieve full block at the end of experiment. The potency of the compounds was assessed on two read-outs, resting state block (P1 measurement) or inactivated state block (P2 measurement) to obtain IC50 values. […]

Which IC50 (read-out: P1 IC50, resting state block (P1 measurement), human Nav1.8/b3 CHO cells) does the source give for Cc1c(C(F)(F)F)cnc(N2CCCC(F)(F)CC2)c1C(=O)Nc1cccc([S@@](C)(=O)=NC(=O)[C@@H](C)N)c1 here?
Its IC50 is < 5 nM.

What about the IC50 (read-out: P2 IC50, inactivated state block (P2 measurement), human Nav1.8/b3 CHO cells) of the same compound?
The IC50 was < 5 nM.

Read-outs that look alike come from different tables or passages of the source.
